Reference: ChEMBL document CHEMBL5321194 (J Med Chem, 2023)

Chains of the proteins cited; added tags and fusions are not shown.
UniProt Q9UPE1, whole entry: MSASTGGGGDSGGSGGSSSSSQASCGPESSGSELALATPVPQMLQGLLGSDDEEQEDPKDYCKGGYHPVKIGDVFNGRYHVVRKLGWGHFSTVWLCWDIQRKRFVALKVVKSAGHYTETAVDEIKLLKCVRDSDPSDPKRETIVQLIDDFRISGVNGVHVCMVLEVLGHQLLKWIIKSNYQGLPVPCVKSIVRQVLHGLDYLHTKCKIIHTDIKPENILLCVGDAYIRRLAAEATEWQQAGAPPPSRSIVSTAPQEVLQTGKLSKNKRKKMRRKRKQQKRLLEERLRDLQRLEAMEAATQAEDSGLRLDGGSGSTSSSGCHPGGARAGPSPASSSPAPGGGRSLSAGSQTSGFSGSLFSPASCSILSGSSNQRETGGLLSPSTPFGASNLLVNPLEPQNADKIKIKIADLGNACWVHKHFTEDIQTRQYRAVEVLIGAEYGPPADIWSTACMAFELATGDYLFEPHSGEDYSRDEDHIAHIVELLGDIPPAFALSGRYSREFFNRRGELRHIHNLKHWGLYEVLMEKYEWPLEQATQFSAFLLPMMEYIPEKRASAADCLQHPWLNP
UniProt Q96SB4, whole entry: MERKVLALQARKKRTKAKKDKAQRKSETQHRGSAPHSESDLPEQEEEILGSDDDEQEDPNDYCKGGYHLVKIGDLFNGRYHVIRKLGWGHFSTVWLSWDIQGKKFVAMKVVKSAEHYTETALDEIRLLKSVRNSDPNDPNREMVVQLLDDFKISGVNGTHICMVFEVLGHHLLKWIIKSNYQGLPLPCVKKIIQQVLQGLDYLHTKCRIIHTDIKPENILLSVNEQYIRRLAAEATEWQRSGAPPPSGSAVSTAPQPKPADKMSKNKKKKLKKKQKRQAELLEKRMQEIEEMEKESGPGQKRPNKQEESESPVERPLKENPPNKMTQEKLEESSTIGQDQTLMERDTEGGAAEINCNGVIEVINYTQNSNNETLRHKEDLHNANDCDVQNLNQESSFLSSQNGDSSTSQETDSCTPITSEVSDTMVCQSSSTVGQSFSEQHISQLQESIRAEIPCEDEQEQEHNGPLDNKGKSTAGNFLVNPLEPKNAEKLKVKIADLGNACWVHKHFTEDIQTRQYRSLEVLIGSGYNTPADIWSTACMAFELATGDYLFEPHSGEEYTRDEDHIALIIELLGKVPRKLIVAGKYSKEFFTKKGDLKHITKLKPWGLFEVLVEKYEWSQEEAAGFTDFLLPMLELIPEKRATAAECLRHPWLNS
UniProt P78362, whole entry, looked up: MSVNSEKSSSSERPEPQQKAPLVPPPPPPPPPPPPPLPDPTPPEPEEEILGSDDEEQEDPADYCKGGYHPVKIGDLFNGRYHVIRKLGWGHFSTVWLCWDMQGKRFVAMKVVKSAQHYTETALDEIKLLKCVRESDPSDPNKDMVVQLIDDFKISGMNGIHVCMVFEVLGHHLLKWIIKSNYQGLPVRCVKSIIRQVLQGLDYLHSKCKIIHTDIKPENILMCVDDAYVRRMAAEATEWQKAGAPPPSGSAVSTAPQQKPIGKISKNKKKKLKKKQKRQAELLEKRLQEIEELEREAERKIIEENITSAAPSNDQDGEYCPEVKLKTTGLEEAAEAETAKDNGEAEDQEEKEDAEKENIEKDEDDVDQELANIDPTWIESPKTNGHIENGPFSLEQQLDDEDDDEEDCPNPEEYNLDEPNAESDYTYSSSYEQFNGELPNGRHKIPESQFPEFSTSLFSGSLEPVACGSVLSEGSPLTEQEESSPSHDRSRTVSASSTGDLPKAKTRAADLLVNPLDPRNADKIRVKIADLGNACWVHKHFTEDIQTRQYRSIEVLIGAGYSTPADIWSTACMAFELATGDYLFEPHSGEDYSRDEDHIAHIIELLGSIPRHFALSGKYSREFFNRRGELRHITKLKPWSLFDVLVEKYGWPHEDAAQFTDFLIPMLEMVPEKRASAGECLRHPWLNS

Columns and labels:
[1] = biological target: SRSF protein kinase 3 (Homo sapiens, UniProt Q9UPE1); details: time 10.0 min
[2] = biological target: T1, SRSF protein kinase 1 (Homo sapiens, UniProt Q96SB4); details: time 10.0 min
[3] = biological target: T2, SRSF protein kinase 2 (Homo sapiens, UniProt P78362); details: time 10.0 min
[4] = biological target: T1, SRSF protein kinase 1; experiment: Inhibition of C-terminal nLuc-fused SRPK1 (unknown origin) transfected in intact HEK293T cells by NanoBRET assay
[5] = biological target: T1, SRSF protein kinase 1
[6] = biological target: T2, SRSF protein kinase 2
[7] = biological target: T2, SRSF protein kinase 2; remark: listed apart in the source
[8] = biological target: T1, SRSF protein kinase 1; remark: listed apart in the source
[9] = biological target: T1, SRSF protein kinase 1; remark: listed apart in the source

| SMILES | ΔTm [1] [°C] | other results |
| --- | --- | --- |
| CN(c1ncccc1CNc1ccnc(-c2nc3cc(Cl)ccc3n2C)n1)S(C)(=O)=O | 7.1 |  |
| CN(c1ncccc1CNc1ccnc(-c2nc3cc(N4CCOCC4)ccc3[nH]2)n1)S(C)(=O)=O | 1.9 |  |
| COc1ccc2[nH]c(-c3nccc(NCc4cccnc4N(C)S(C)(=O)=O)n3)nc2c1 | 3.8 |  |
| CC(C)c1ccc2[nH]c(-c3nccc(NCc4cccnc4N(C)S(C)(=O)=O)n3)nc2c1 | 5.6 |  |
| CN(c1ncccc1CNc1ccnc(-c2nc3ccc(F)cc3[nH]2)n1)S(C)(=O)=O | 5.3 |  |
| CN(c1ncccc1Cn1ccc2cnc(-c3nc4cc(Cl)ccc4[nH]3)cc21)S(C)(=O)=O | 4 |  |
| CN(c1ncccc1CNc1ccnc(-c2nc3cc(Cl)cc(F)c3[nH]2)n1)S(C)(=O)=O | 7.8 |  |
| CN(c1ncccc1CNc1ccnc(-c2nc3cc(Cl)c(F)cc3[nH]2)n1)S(C)(=O)=O | 7 |  |
| CN(c1ncccc1CNc1ccnc(-c2cc3cc(Cl)ccc3[nH]2)n1)S(C)(=O)=O | 1 | ΔTm [2]: 0.5 °C; ΔTm [3]: 0.3 °C |
| CN(c1ncccc1CNc1ccnc(-c2nc3cc(F)c(F)cc3[nH]2)n1)S(C)(=O)=O | 5.5 |  |
| CN(c1ncccc1CNc1ccnc(-c2nc3ccccc3[nH]2)n1)S(C)(=O)=O | 3.5 |  |
| CN(c1ncccc1CNc1ccnc(-c2nc3ccc(C#N)cc3[nH]2)n1)S(C)(=O)=O | 5.8 |  |
| CN(c1ncccc1CNc1ccnc(-c2nc3c(F)c(Cl)ccc3[nH]2)n1)S(C)(=O)=O |  | EC50 [4]: 98 nM; IC50 [5]: 3 nM; IC50 [6]: 80 nM; EC50 [7]: 149 nM; Kd [8]: 145 nM; EC50 [9]: 44 nM |
| Cc1ccc2nc(-c3nccc(NCc4cccnc4N(C)S(C)(=O)=O)n3)[nH]c2c1 | 6.5 |  |
| CN(c1ncccc1CNc1nc(-c2nc3cc(Cl)ccc3[nH]2)ncc1Br)S(C)(=O)=O | 5.1 |  |
| CN(c1ncccc1CNc1ccnc(-c2nc3cc(F)cc(Cl)c3[nH]2)n1)S(C)(=O)=O | 7.9 |  |
| CN(c1ncccc1CNc1ccnc(-c2nc3cc(F)cc(F)c3[nH]2)n1)S(C)(=O)=O | 6.1 |  |
| CN(c1ncccc1CNc1ccnc(-c2nc3cc(-c4cnn(C)c4)ccc3[nH]2)n1)S(C)(=O)=O | 3.6 |  |
| CN1CCN(c2cc3nc(-c4nccc(NCc5cccnc5N(C)S(C)(=O)=O)n4)[nH]c3cc2F)CC1 | 3 |  |
| CN(c1ncccc1Cn1ccc2cnc(-c3nc4cc(Cl)ccc4[nH]3)nc21)S(C)(=O)=O | 4.7 |  |
| CN(Cc1cccnc1N(C)S(C)(=O)=O)c1ccnc(-c2nc3cc(Cl)ccc3[nH]2)n1 | 5.6 |  |
| CN(c1ncccc1CNc1ccnc(-c2nc3cc(Cl)ccc3[nH]2)n1)S(C)(=O)=O | 7.8 |  |
| CN(c1ncccc1CNc1cccc(-c2nc3cc(Cl)ccc3[nH]2)n1)S(C)(=O)=O | 8.5 |  |
